This note sets out measurements from paper PMC7782793, “Hydroxamic acid-modified peptide microarrays for profiling isozyme-selective interactions and inhibition of histone deacetylases” (Nature Communications, 2021).

Protein sequences, listed by entry. Tags and fused reporters are not part of them. Residues count along the entry.
UniProt Q9BY41, whole entry: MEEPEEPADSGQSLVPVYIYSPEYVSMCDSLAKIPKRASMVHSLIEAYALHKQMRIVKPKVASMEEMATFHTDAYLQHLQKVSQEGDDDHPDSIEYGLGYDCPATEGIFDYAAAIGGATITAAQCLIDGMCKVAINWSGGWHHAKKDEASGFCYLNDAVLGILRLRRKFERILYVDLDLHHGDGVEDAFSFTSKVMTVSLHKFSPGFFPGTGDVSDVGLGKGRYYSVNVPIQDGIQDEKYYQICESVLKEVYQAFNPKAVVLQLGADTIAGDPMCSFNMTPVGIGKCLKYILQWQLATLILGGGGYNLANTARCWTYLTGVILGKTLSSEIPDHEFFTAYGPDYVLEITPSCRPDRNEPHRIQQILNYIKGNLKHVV
UniProt Q92769, whole entry: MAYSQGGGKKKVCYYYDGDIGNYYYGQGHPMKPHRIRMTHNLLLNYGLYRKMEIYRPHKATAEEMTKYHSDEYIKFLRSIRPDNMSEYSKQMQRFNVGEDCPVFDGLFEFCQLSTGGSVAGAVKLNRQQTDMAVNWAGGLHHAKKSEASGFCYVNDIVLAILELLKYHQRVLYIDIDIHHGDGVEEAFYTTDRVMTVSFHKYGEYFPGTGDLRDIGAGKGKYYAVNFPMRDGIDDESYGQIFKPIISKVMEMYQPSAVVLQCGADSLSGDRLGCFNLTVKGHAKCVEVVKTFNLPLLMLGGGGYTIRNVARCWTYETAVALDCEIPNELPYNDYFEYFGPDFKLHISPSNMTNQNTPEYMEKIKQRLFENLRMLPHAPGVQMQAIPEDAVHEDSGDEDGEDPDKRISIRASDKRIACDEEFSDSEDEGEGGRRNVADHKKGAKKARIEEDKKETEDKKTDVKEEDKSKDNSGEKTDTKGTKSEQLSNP
UniProt O15379, whole entry: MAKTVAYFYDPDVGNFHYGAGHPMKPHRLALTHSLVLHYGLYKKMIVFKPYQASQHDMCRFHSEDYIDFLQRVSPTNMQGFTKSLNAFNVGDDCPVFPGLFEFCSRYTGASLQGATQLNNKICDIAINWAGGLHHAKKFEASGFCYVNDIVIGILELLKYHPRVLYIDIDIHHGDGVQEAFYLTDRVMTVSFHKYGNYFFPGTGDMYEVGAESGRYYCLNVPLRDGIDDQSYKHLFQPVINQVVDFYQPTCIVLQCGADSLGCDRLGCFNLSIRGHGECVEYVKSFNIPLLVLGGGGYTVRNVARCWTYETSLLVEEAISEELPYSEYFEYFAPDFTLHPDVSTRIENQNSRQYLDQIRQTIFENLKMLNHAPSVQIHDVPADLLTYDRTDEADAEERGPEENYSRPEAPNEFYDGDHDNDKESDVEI
UniProt Q13547, whole entry: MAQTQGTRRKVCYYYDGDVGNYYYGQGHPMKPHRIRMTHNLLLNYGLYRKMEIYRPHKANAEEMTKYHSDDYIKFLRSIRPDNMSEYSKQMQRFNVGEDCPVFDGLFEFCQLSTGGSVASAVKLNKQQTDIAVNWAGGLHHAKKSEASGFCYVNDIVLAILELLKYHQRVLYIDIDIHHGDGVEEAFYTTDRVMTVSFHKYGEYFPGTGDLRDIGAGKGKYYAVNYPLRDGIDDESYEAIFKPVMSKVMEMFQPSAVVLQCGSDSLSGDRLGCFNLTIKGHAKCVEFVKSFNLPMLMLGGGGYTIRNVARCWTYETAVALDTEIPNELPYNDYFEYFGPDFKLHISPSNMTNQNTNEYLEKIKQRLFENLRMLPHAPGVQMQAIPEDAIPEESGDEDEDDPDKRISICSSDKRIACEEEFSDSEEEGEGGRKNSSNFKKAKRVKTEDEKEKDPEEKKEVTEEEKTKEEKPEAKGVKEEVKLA
UniProt Q9Y618, 389-480 partner limits assumed: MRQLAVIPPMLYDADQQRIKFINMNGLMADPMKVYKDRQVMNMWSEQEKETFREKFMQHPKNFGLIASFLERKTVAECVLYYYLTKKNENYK

Assay in all cases: Recombinant HDAC µSPOT microarray binding assay
One assay has as its target HDAC8 (Homo sapiens, UniProt Q9BY41). Particulars: for Bottom Value / Top Value: HDAC8, Fig. 5a, X = Asuha; for Bottom / HillSlope / Top: dose-response fit parameter, µSPOT microarray, H4 K12X (X = Asuha) peptides, HDAC8.
The next assay concerns the target HDAC2 (Homo sapiens, UniProt Q92769). Conditions: dose-response fit parameter, H4 K12X (X = Asuha) peptides.
The next assay deals with HDAC3/NCoR2 (Homo sapiens, UniProt O15379). Particulars: dose-response fit parameter, H4 K12X (X = Asuha) peptides.
The next assay addresses HDAC1 (Homo sapiens, UniProt Q13547). Particulars: dose-response fit parameter, H4 K12X (X = Asuha) peptides.
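Throughout, for Bottom Value: peptide µSPOT slides incubated with varying HDAC enzyme concentrations, imaged signal intensity fitted by four-parameter variable-slope regression, EC50 is enzyme concentration giving half-maximal binding, pH 7.4 HEPES buffer.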
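Throughout, for Top Value: peptide µSPOT slides incubated with varying HDAC enzyme concentrations, imaged signal intensity fitted by four-parameter variable-slope regression, EC50 is enzyme concentration giving half-maximal binding, pH 7.4 HEPES buffer.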

As to `C[C@H](N)C(=O)N[C@@H](CCCNC(=N)N)C(=O)N[C@H](C(=O)N[C@@H](CCCCN(C)C)C(=O)N[C@@H](CCC(N)=O)C(=O)N[C@H](C(=O)N[C@@H](C)C(=O)N[C@@H](CCCNC(=N)N)C(=O)N[C@@H](CCCCCC(=O)NO)C(=O)N[C@@H](CO)C(=O)N[C@H](C(=O)NCC(=O)NCC(=O)N[C@@H](CCCCN)C(=O)N[C@@H](C)C(=O)N1CCC[C@H]1C(=O)O)[C@@H](C)O)[C@@H](C)O)[C@@H](C)O`, on HDAC8, the “Bottom Value” came to 0.05 and the “Top Value” is recorded as 1.
As to `C[C@H](N)C(=O)N[C@@H](CCCNC(=N)N)C(=O)N[C@H](C(=O)N[C@@H](CCCC[N+](C)(C)C)C(=O)N[C@@H](CCC(N)=O)C(=O)N[C@H](C(=O)N[C@@H](C)C(=O)N[C@@H](CCCNC(=N)N)C(=O)N[C@@H](CCCCCC(=O)NO)C(=O)N[C@@H](CO)C(=O)N[C@H](C(=O)NCC(=O)NCC(=O)N[C@@H](CCCCN)C(=O)N[C@@H](C)C(=O)N1CCC[C@H]1C(=O)O)[C@@H](C)O)[C@@H](C)O)[C@@H](C)OP(=O)(O)O`, at HDAC8, the “Bottom Value” was 0.07 and the “Top Value” came to 0.99.
As for `CC(C)C[C@H](NC(=O)CNC(=O)[C@H](CCCCN)NC(=O)CNC(=O)CN)C(=O)NCC(=O)N[C@@H](CCCCCC(=O)NO)C(=O)NCC(=O)NCC(=O)N[C@@H](C)C(=O)N[C@@H](CCCCN)C(=O)N[C@@H](CCCNC(=N)N)C(=O)N[C@@H](Cc1cnc[nH]1)C(=O)N[C@@H](CCCNC(=N)N)C(=O)O`, the Bottom on HDAC2 is on record as -0.86; on HDAC3/NCoR2, 0.02; on HDAC1, 0.08; on HDAC8, 0.28. Besides, the HillSlope on HDAC2 came to 0.13; on HDAC3/NCoR2, 0.71; at HDAC1, 1.22; at HDAC8, 2. Further, the Top was 1.39 on HDAC2, 0.93 on HDAC1 and 0.57 at HDAC8.
Regarding `C[C@H](N)C(=O)N[C@@H](CCCNC(=N)N)C(=O)N[C@H](C(=O)N[C@@H](CCCC[N+](C)(C)C)C(=O)N[C@@H](CCC(N)=O)C(=O)N[C@H](C(=O)N[C@@H](C)C(=O)N[C@@H](CCCNC(=N)N)C(=O)N[C@@H](CCCCCC(=O)NO)C(=O)N[C@@H](CO)C(=O)N[C@H](C(=O)NCC(=O)NCC(=O)N[C@@H](CCCCN)C(=O)N[C@@H](C)C(=O)N1CCC[C@H]1C(=O)O)[C@@H](C)O)[C@@H](C)O)[C@@H](C)O`, on HDAC8, the “Bottom Value” was 0.06 and the “Top Value” came out at 1.
On to `CC(C)C[C@H](NC(=O)CNC(=O)[C@H](CCCCN)NC(=O)CNC(=O)CNC(=O)[C@@H](N)CCCCN)C(=O)NCC(=O)N[C@@H](CCCCCC(=O)NO)C(=O)NCC(=O)NCC(=O)N[C@@H](C)C(=O)N[C@@H](CCCCN)C(=O)N[C@@H](CCCNC(=N)N)C(=O)O`, for which the Bottom at HDAC2 came to 0.08; on HDAC3/NCoR2, 0.04; at HDAC1, 0.01; at HDAC8, 0.08. Also, the results for the HillSlope at HDAC2, at HDAC3/NCoR2 and on HDAC8 were 1.65, 1.98 and 0.35, respectively. The Top is 0.72 on HDAC2, 261.81 on HDAC1 and 52.59 at HDAC8.
For `CC(C)C[C@H](NC(=O)CN)C(=O)NCC(=O)N[C@@H](CCCCCC(=O)NO)C(=O)NCC(=O)NCC(=O)N[C@@H](C)C(=O)N[C@@H](CCCCN)C(=O)N[C@@H](CCCNC(=N)N)C(=O)N[C@@H](Cc1cnc[nH]1)C(=O)N[C@@H](CCCNC(=N)N)C(=O)O`, the Bottom is 0.04 on HDAC2, -0.01 on HDAC3/NCoR2, 0.03 at HDAC1 and 0.15 on HDAC8. Besides, the HillSlope turned out to be 0.45 at HDAC2, 0.55 on HDAC3/NCoR2, 0.67 at HDAC1 and 2 at HDAC8. For the same compound, the Top came to 1.7 at HDAC2, 0.97 at HDAC1 and 0.43 at HDAC8.
Consider `C[C@H](N)C(=O)N[C@@H](CCCNC(=N)N)C(=O)N[C@H](C(=O)N[C@@H](CCCCN)C(=O)N[C@@H](CCC(N)=O)C(=O)N[C@H](C(=O)N[C@@H](C)C(=O)N[C@@H](CCCNC(=N)N)C(=O)N[C@@H](CCCCCC(=O)NO)C(=O)N[C@@H](CO)C(=O)N[C@H](C(=O)NCC(=O)NCC(=O)N[C@@H](CCCCN)C(=O)N[C@@H](C)C(=O)N1CCC[C@H]1C(=O)O)[C@@H](C)O)[C@@H](C)O)[C@@H](C)O`, for which the “Bottom Value” at HDAC8 was determined as 0.04.
Consider `CC(C)C[C@H](NC(=O)[C@@H](NC(=O)[C@H](CCCCN)NC(=O)[C@H](CCCNC(=N)N)NC(=O)[C@H](Cc1cnc[nH]1)NC(=O)[C@H](CCCNC(=N)N)NC(=O)[C@H](CCCCN)NC(=O)[C@H](C)NC(=O)CNC(=O)CNC(=O)[C@H](CCCCCC(=O)NO)NC(=O)CNC(=O)[C@@H](N)CC(C)C)C(C)C)C(=O)N[C@@H](CCCNC(=N)N)C(=O)N[C@@H](CC(=O)O)C(=O)O`, for which the Bottom on HDAC2 was found to be 0.09; on HDAC3/NCoR2 it was 0.01; at HDAC1 it was 0.01; at HDAC8, 0.14. Besides, the HillSlope is recorded as 0.89 on HDAC2, 1.2 at HDAC3/NCoR2 and 4.6 at HDAC8. Besides, the values for the Top on HDAC2, at HDAC1 and at HDAC8 were 0.74, 5.12 and 0.6, respectively.
Turning to `CC(C)C[C@H](NC(=O)CNC(=O)[C@H](CCCCN)NC(=O)CNC(=O)CNC(=O)[C@H](CCCCN)NC(=O)CNC(=O)[C@@H](N)CCCNC(=N)N)C(=O)NCC(=O)N[C@@H](CCCCCC(=O)NO)C(=O)NCC(=O)NCC(=O)N[C@@H](C)C(=O)N[C@@H](CCCCN)C(=O)N[C@@H](CCCNC(=N)N)C(=O)O`, the Bottom at HDAC2 came out at 0.19; at HDAC3/NCoR2 it was 0.11; at HDAC1, 0.07; on HDAC8, 0.15. The HillSlope at HDAC2 came to 2.19; at HDAC1 it was 1.89. The Top is given as 0.8 on HDAC2 and 0.9 on HDAC1.
In the case of `CC(C)C[C@H](NC(=O)CNC(=O)[C@H](CCCCN)NC(=O)CNC(=O)CNC(=O)[C@@H](N)CCCCN)C(=O)NCC(=O)N[C@@H](CCCCCC(=O)NO)C(=O)NCC(=O)NCC(=O)N[C@@H](C)C(=O)N[C@@H](CCCCN)C(=O)N[C@@H](CCCNC(=N)N)C(=O)N[C@@H](Cc1cnc[nH]1)C(=O)O` [A11], the Bottom on HDAC2 is 0.11; on HDAC3/NCoR2, 0.07; on HDAC1 it was 0.02; on HDAC8, 0.2. Besides, the HillSlope at HDAC2 worked out at 0.85; at HDAC3/NCoR2, 5.85; on HDAC8 it was 10.91. Besides, the Top on HDAC1 worked out at 1.76.
Take `CC(C)C[C@H](NC(=O)[C@@H](NC(=O)[C@H](CCCCN)NC(=O)[C@H](CCCNC(=N)N)NC(=O)[C@H](Cc1cnc[nH]1)NC(=O)[C@H](CCCNC(=N)N)NC(=O)[C@H](CCCCN)NC(=O)[C@H](C)NC(=O)CNC(=O)CNC(=O)[C@H](CCCCCC(=O)NO)NC(=O)CNC(=O)[C@H](CC(C)C)NC(=O)CNC(=O)[C@@H](N)CCCCN)C(C)C)C(=O)O`: the Bottom is on record as -0.11 on HDAC2, 0.03 on HDAC3/NCoR2, 0.04 at HDAC1 and 0.15 at HDAC8. Besides, the HillSlope worked out at 0.21 at HDAC2, 0.76 on HDAC1 and 8.56 at HDAC8. The Top at HDAC2 came to 2.7; at HDAC3/NCoR2, 0.7; at HDAC1 it was 1.08; on HDAC8 it was 0.64.
With `CC(C)C[C@H](NC(=O)CNC(=O)[C@H](CCCCN)NC(=O)CNC(=O)CNC(=O)[C@@H](N)CCCCN)C(=O)NCC(=O)N[C@@H](CCCCCC(=O)NO)C(=O)NCC(=O)NCC(=O)N[C@@H](C)C(=O)O`, the Bottom came to 0.02 on HDAC2, 0.02 at HDAC3/NCoR2, 0.03 on HDAC1 and 0.02 on HDAC8. For the same compound, the values for the HillSlope on HDAC2, at HDAC3/NCoR2 and at HDAC8 were 5.93, 1.03 and 2.99, respectively. The Top was 0.22 at HDAC2, 1 on HDAC3/NCoR2, 233.36 at HDAC1 and 0.29 on HDAC8.
As to `C[C@H](NC(=O)CNC(=O)CNC(=O)[C@@H](N)CCCCCC(=O)NO)C(=O)N[C@@H](CCCCN)C(=O)N[C@@H](CCCNC(=N)N)C(=O)N[C@@H](Cc1cnc[nH]1)C(=O)N[C@@H](CCCNC(=N)N)C(=O)O`, the Bottom at HDAC2 is 0.15; on HDAC3/NCoR2, -0.12; on HDAC1, 0.02; at HDAC8, 0.29. In addition, the HillSlope at HDAC2 is listed as 0.77; on HDAC3/NCoR2, 0.27; on HDAC1, 0.67; at HDAC8, 2. Further, the Top on HDAC2 is 0.9; on HDAC1 it was 1.01; at HDAC8, 0.72.
